These results are taken from BindingDB's records for doi:10.1021/jm950711l (University of California, 1996).

What is called Ki is a measure of affinity in units of concentration, obtained from inhibition or displacement. Low readings indicate tighter binding, high ones weaker binding.

This test can be described thus: Binding to ryanodine receptor in canine cardiac membranes.

Regarding `CC1CCC2(O)C3(C)CC4(O)OC2(C1O)C1(O)C3(O)C(OC(=O)c2ccc[nH]2)C(O)(C(C)C)C41C` (stereo unspecified) [Ryanodine Derivative], the Ki is 1.8 nM.
